Reference: PMC3759666, “Post-translational modification and conformational state of Heat Shock Protein 90 differentially affect binding of chemically diverse small molecule inhibitors” (Oncotarget, 2013)

Protein sequences, listed by entry. Tags and fused reporters are not part of them. Residues count along the entry.
UniProt P08238, 2-724: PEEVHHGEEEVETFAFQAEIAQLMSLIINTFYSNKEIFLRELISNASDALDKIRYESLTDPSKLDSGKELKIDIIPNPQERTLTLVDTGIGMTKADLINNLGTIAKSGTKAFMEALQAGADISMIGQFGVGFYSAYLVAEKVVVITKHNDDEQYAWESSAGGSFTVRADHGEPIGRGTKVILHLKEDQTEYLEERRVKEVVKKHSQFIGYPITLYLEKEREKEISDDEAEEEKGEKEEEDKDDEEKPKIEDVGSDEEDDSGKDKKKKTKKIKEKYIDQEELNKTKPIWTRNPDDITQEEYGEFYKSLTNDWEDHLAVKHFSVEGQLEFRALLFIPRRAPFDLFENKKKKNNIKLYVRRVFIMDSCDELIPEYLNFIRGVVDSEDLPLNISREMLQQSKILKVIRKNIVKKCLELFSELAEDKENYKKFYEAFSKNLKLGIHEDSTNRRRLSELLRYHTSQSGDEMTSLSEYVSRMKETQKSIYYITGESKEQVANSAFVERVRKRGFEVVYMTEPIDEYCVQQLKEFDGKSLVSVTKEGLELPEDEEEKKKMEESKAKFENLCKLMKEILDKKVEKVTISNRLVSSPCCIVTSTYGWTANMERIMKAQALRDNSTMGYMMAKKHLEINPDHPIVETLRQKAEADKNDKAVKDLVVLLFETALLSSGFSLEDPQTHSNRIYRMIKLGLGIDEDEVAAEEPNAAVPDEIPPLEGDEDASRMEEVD

Biological target: T1, Hsp90β (Homo sapiens, UniProt P08238)
T1 construct: gene HSP90AB1

CC(C)NCCCn1c(Sc2cc3c(cc2I)OCO3)nc2c(N)ncnc21 [PU, PU-H71]
PU-agarose capture of Flag-Hsp90β from 293-H cell lysate: binding of PU-beads to both Hsp90α and Hsp90β was minimally affected by these mutations
